The text below walks through data of ChEMBL document CHEMBL1125313, “Analogs of Ac-CCK-7 incorporating dipeptide mimics in place of Met28-Gly29” (J Med Chem, 1992).

As usually defined, the ED50 is the dose at which the effect has come halfway, by size or by number of responders.

The nature of this experiment: Dose which caused 50% inhibition of the control intake was determined by log-probit analysis after intraperitoneal administration (CCK-8 receptor). The note with it: Rattus norvegicus.

`CSCC[C@H](NC(=O)[C@H](Cc1c[nH]c2ccccc12)NC(=O)CCCCNC(=O)[C@H](Cc1ccc(S(=O)(=O)O)cc1)NC(=O)O)C(=O)N[C@@H](CC(=O)O)C(=O)N[C@@H](Cc1ccccc1)C(N)=O` showed an ED50 of 32 µmol/kg.
